This is a sample that favours compounds with a hit; in the whole collection about 13% have one here.
G9a inh = G9a (human) methyltransferase inhibition; Q96KQ7; G9a H3K9 monomethylation, AlphaScreen, 2 h; Potency, µM (titrated, usually from 102 µM), hits mostly inhibitors; 8.8% of 350,000 active; AID 504332; note: nearly all actives have a fitted effect of over 75% in size
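Methyltransferase reactions run at room temperature for 2 h (20 nM enzyme, 500 nM biotin-H3K9 peptide, 20 uM SAM) after a 15 min compound preincubation; product detected by AlphaScreen beads and anti-H3K9me1 antibody.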
KDM4E inh = blocks human JMJD2E demethylase activity; JMJD2E catalytic domain, FDH-coupled NADH fluorescence (FDH is formaldehyde dehydrogenase); Potency, µM (titrated, usually from 57.1 µM), hits mostly inhibitors; 1.6% of 230,000 active; AID 2147; active = well fitted inhibition curve with a large enough effect, not every such curve was filed as active; inconclusive = small, poorly fitted or top-dose-only effect, or another doubt; inactive = no such curve, though single readings can be large or run the other way; note: nearly all actives have a fitted effect of over 50% in size
Sfp PPTase inh = Sfp phosphopantetheinyl transferase inhibition; 3.5% of 310,000 active; AID 1490; Biochemical Sfp PPTase activity, qHTS; Potency, µM, hits mostly inhibitors;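 note: the enzyme is Sfp with the accession as filed and its product quenches rhodamine fluorescence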
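Buffer: 50 mM Hepes-Na pH 7.6, 10 mM MgCl2, 0.01% Nonidet P-40, 0.01% BSA. Enzyme 15 nM, pre-exposed to compound 15 min; substrates then added and fluorescence change tracked over 30 min.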
miR-21 reporter = miR-21 reporter, rising signal. HeLa miR-21 FLuc reporter, luciferase, 48 h. Potency, µM (titrated, usually from 38.3 µM). 340,000 tested, under 10 active. AID 2288; active = well fitted rising curve with a large enough effect; inconclusive = small, poorly fitted or top-dose-only effect; inactive = no such curve, though single readings can be large or run the other way;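 also: miR-21 action dims this reporter so a rising signal means less miR-21 action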
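HeLa miR-21-FLuc reporter line, endogenous miR-21; 2000 cells/well in DMEM/10% FBS; compound titration up to ~40uM final, 48 h, 37 degree Celsius; luciferase detection reagent, 15 min lysis, CCD luminescence.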
LMNA splice mod = changes lamin A minigene splicing in HeLa cells; HeLa LMNA splicing GFP/RFP minigene ratio, 48 h; Potency, µM (top dose mostly 46.1 µM), hits mostly inhibitors; 0.01% of 200,000 active; active = well fitted inhibition curve with a large enough effect in the signal ratio, with a control signal flat, not every such curve was filed as active; inconclusive = small, poorly fitted or top-dose-only effect, or effect the other way, or a change in a side signal; the % refers to the signal ratio
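Read-out is the ratio of GFP to DsRed2 object intensity, acquired by 488 nm laser-scanning cytometry on HeLa lamin A-EGFP minigene reporter cells. Compound incubation 48 hrs at 37 °C in Opti-MEM with 2% FBS; DMSO 0.5% final.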
ALDH1A1 block = inhibitors of human aldehyde dehydrogenase 1A1; Purified ALDH1A1, NADH fluorescence, propionaldehyde substrate; Potency, µM (highest dose often 75.3 µM), hits mostly inhibitors; AID 1030; P00352; 7.3% of 220,000 active; active = well fitted inhibition curve with a large enough effect, not every such curve was filed as active; inconclusive = small, poorly fitted or top-dose-only effect, or another doubt; inactive = no such curve, though single readings can be large or run the other way
Numbers stand for hits; [ ] = another dose, or the depositor's remark. Unless noted, calls come from the whole dose curve; as a rule, active = well fitted curve in the direction sought with a large enough effect; inconclusive = small, poorly fitted or top-dose-only effect, or another doubt; inactive = no such curve, though single readings can be large; an effect the other way counts as inactive or inconclusive.

Cc1cc(C)nc(N/N=C/c2ccc(N3CCOCC3)cc2)n1 was read as G9a inh inactive, KDM4E inh inactive, Sfp PPTase inh inactive, miR-21 reporter inactive, LMNA splice mod inconclusive and ALDH1A1 block inactive.
`CCCc1cc(=O)[nH]c(Nc2ccc(N3CCCCC3)cc2)n1` gave G9a inh 8.91µM, KDM4E inh inactive, Sfp PPTase inh inactive, miR-21 reporter inactive, LMNA splice mod inactive and ALDH1A1 block inactive.
Screening CCCCc1ccc(Nc2nc(CCC)cc(=O)[nH]2)cc1 returned G9a inh inactive, KDM4E inh inactive, Sfp PPTase inh inactive, miR-21 reporter inactive, LMNA splice mod inconclusive and ALDH1A1 block inactive.
Screening Cc1ccc(C(=O)NCCc2ccccn2)cc1S(=O)(=O)N1CCOCC1 returned G9a inh inactive[12.7 µM], KDM4E inh inactive, Sfp PPTase inh inactive and miR-21 reporter inactive.
`Cc1ccc(C)n1-c1ccc(C(=O)/C=C/N(C)C)cc1` gave G9a inh inconclusive, KDM4E inh inactive, Sfp PPTase inh inactive, miR-21 reporter inactive, LMNA splice mod inconclusive and ALDH1A1 block inconclusive.
`Cc1ccc(C)n1-c1ccc(N(C)C)cc1` gave G9a inh 7.08µM, KDM4E inh 15.8µM, Sfp PPTase inh 39.8µM, miR-21 reporter inactive, LMNA splice mod inactive and ALDH1A1 block inconclusive.
Screening C=CC[n+]1c(-c2ccc(OC)cc2)csc1NNC(=O)Nc1ccccc1 returned G9a inh 14.1µM, KDM4E inh inactive, Sfp PPTase inh 50.1µM, miR-21 reporter inactive, LMNA splice mod inconclusive and ALDH1A1 block inconclusive.
`C=CC[n+]1c(-c2ccc(C)cc2)csc1Nc1ccc(NC(C)=O)cc1` gave G9a inh inconclusive, KDM4E inh inactive, Sfp PPTase inh inactive, miR-21 reporter inconclusive, LMNA splice mod inconclusive and ALDH1A1 block inactive.
For COc1cc(OC)c(C2Nc3ccccc3-c3nnc(SCc4ccccc4)nc3O2)cc1OC (stereo not drawn) the results were G9a inh inactive and miR-21 reporter inactive.
`CCOC(=O)C1(CCOc2ccccc2)CCN(Cc2ccc(OC)c(O)c2)CC1` gave Sfp PPTase inh inactive and miR-21 reporter inactive.
For CCOC(=O)C1(Cc2ccccc2C)CCCN(Cc2cn(C)nc2C)C1 (stereo not drawn) the results were KDM4E inh inactive, Sfp PPTase inh inactive, miR-21 reporter inactive and ALDH1A1 block inactive.
CCOC(=O)C1(CCOC)CCN(Cc2cnc(-c3cccc(C)c3)nc2)CC1 was read as G9a inh 44.7µM, KDM4E inh inactive, Sfp PPTase inh inactive, miR-21 reporter inactive and ALDH1A1 block inactive.
Screening CCOC(=O)C1(CCOc2ccccc2)CCN(Cc2ccc(O)c(OCC)c2)CC1 returned G9a inh 79.4µM, Sfp PPTase inh inactive and miR-21 reporter inactive.
For CCOC(=O)C1(Cc2ccccc2C)CCCN(Cc2cc(OC)c(O)c(OC)c2)C1 (stereo not drawn) the results were G9a inh 44.7µM, KDM4E inh inactive, Sfp PPTase inh inactive, miR-21 reporter inactive, LMNA splice mod inactive and ALDH1A1 block inconclusive.
CCOC(=O)C1(CCOc2ccccc2)CCN(Cc2cc(OC)c(O)c(OC)c2)CC1 was read as G9a inh 79.4µM, Sfp PPTase inh inactive and miR-21 reporter inactive.
Screening O=C(CSc1nc(=O)n2ccccc2n1)NC1CCCCC1 returned G9a inh inactive.
Screening CCOc1ccc(CCNC(=O)NCc2noc3ccc(C)cc23)cc1 returned G9a inh inactive and miR-21 reporter inactive.
`COc1cccc(CNC(=O)CCn2nc(C)c3c(C)n(-c4ccccc4)nc3c2=O)c1` gave G9a inh inactive and miR-21 reporter inactive.
`CCOC(=O)C1(CCOc2ccccc2)CCN(Cc2ccc(C)o2)CC1` gave G9a inh inconclusive, KDM4E inh inactive, Sfp PPTase inh inactive, miR-21 reporter inactive and ALDH1A1 block 17.8µM.
`O=C(CC1S/C(=N/N=C2CCCCCC2)NC1=O)Nc1ccc(Br)cc1F` (stereo not drawn) gave G9a inh inactive, Sfp PPTase inh inactive and miR-21 reporter inactive.
For CCOc1ccc(C2CC(=O)n3nc(-c4ccc(C)cc4)nc3S2)cc1 (stereo not drawn) the results were G9a inh inconclusive and miR-21 reporter inactive.

Screens from PubChem BioAssay.
